Literature values, collected in patent publication US20130209578A1, “Combinatory Cancer Treatment” (UNIVERSITE DE MONTREAL, priority 2010, published 2013).

Tested on: acute myeloid leukemia (AML)
Settings: ribavirin monotherapy; cited from earlier work

SMILES: NC(=O)c1ncn([C@@H]2O[C@H](CO)[C@@H](O)[C@H]2O)n1 [ribavirin, 1-[(2R,3R,4S,5R)-3,4-dihydroxy-5-(hydroxymethyl)oxolan-2-yl]-1H-1,2,4-triazole-3-carboxamide]
- treatment-related toxicities: no treatment-related toxicities are observed
